{"source": "ChEMBL document CHEMBL1128680", "about": "“6-substituted 2,4-diamino-5-methylpyrido[2,3-d]pyrimidines as inhibitors of dihydrofolate reductases from Pneumocystis carinii and Toxoplasma gondii and as antitumor agents” (J Med Chem, 1995)", "test": "Ratio of the inhibitory concentrations against Toxoplasma gondii […] and Toxoplasma gondii DHFR."}
{"compound": "COc1cc(NCc2cnc3nc(N)nc(N)c3c2C)cc(OC)c1OC", "values": [{"measurement": "Ratio", "value": 3110}]}
